# Data as given in patent US20030229066A1, “Novel heterocyclic urea derivatives and their use as dopamine D3 receptor ligands” (priority 2001, published 2003).
# Chains of the proteins cited; added tags and fusions are not shown.
# UniProt P35462, whole entry: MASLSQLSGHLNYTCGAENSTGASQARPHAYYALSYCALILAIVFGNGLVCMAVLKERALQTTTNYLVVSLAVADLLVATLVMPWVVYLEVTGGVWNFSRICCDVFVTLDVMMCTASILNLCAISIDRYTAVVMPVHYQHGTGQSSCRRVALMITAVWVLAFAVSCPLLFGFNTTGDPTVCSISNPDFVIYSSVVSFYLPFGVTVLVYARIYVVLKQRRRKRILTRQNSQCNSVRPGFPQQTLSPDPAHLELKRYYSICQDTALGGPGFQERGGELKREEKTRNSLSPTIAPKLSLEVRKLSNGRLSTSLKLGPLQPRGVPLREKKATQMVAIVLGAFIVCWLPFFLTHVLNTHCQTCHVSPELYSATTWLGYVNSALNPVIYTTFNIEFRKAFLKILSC
# Molecular target: cloned human dopamine D3 receptors (Homo sapiens, UniProt P35462)
# Experiment: [N-Methyl-3H]Spiroperidol binding to cloned human dopamine D3 receptors
# Conditions: read-out: D3 Ki
# Source text: [N-Methyl-^3H]Spiroperidol Binding to Cloned Human Dopamine D3 Receptors
# This assay measures the in vitro activity of compounds on cloned human dopamine (D3) receptors and predicts the direct dopamine-blocking properties of putative neuropsychiatric agents at human dopamine D3 receptors.
# The D3 gene was isolated from a human striatal cDNA library (Stratagene). The gene was sequenced and sub-cloned into the expression vector RC/RSV (Invitrogen). CHO (Chinese Hamster Ovary) cells were stably transfected with 10 μg of the D3/RSV plasmid using the DOTAP method from Boehringer Mannheim and 72 clones that were G418 resistant were isolated. Using mRNA and binding displacement data a single high expressing clone was identified. This clone was then grown in large batches for the purpose of developing a 96 well format assay.
# The cells are harvested into 250 ml centrifuge tubes with 100 volumes of cold phosphate buffered saline (PBS) and spun down (1200×G for 10 min at 4° C.). The medium is removed and 100 ml PBS are added to each centrifuge tube, cells are resuspened and spun down again. The PBS is removed and the final pellet is homogenized in an appropriate volume of 10% DMSO with a polytron on ice at a medium setting.
# For Kj determinations: [^3H]NMSP is made up to a concentration of 2.7 nM in buffer 2b, such that when 150 μl is added to each tube a final concentration of 0.4 nM is attained in the 1 ml assay. Samples of total CPM added are taken for each experiment to calculate the total ligand concentration.
# 5. S(-)-Eticlopride is obtained from Research Biochemicals International (RBI catalog number E-101). A refrigerated stock (good for up to a month) solution of S(-)-eticlopride is made at a concentration of 30 μM in buffer 2b. One hundred microliters are added to 3 wells for the determination of nonspecific binding (this yields a final concentration of 3 μM in the 1 ml assay).
# For most assays, a 100 μM stock solution of the test compound is made up in a suitable solvent (usually <0.1% acetic acid) and serially diluted with buffer 2b, such that when 100 μl of drug is combined with the total 1 ml assay, final concentrations ranging from 10^−5-10^−8 M are attained. Characteristically eight concentrations are studied for each assay; however, higher or lower concentrations may be used, depending on the potency of the drug.
# The 96-Well Packard Unifilters GF/B are incubated for >1 h at 25° C. in 0.1% polyethylamine (from 3,b). The cold tissue is added last and mixed on a orbital shaker for a few seconds and is then incubated at 37° C. for 30 min in a shaking water bath. The assay is stopped by rapid filtration through Packard Unifilter plates. The filter membranes are then washed with 15 ml of ice-cold 0.05 M Tris buffer. The filters are then dried (˜15 min under a heat lamp or incubated for 15 min in a 60° C. oven) and a bottom seal is applied. Then 40 μl of Packard Microscint 20 scintillation cocktail is added and a permanent topseal (Type P) is applied and heat sealed. The plates are then shaken on an orbital shaker for 1 h and placed in the Packard Topcount and counted for at least 5 minutes for each point.
# Specific binding is defined as the difference between total binding and the binding in the presence of 3 μM S-(-)-eticlopride. Total binding is approximately 10% of the total added ligand. Cheng-Prusoff determination (Kj's) are performed using Prism software using a one-site competition curve analysis where the top and the bottom of the non-linear regression are held constant at 0% and 100% percent inhibition. The percent inhibition at each drug concentration is the mean of duplicate determinations.
row,Compound,Ki [nM]
1,O=C(NC[C@@H]1C[C@H]1CN1CCCN(c2csc3cc(F)ccc23)CC1)Nc1ccc(OC(F)(F)F)cc1 (relative stereo),137
2,O=C(NC[C@@H]1C[C@H]1CN1CCN(c2csc3cc(C(F)(F)F)ccc23)CC1)Nc1cccc2ccccc12,21.9
3,O=C(NCCCCN1CCCN(c2noc3ccsc23)CC1)Nc1cccc(Br)c1,142
4,CCOc1ccc(NC(=O)NCCCCN2CCCN(c3csc4cc(F)ccc34)CC2)cc1,0.0636
5,O=C(NCCCn1ccnc1)NC[C@@H]1C[C@H]1CN1CCC(c2noc3ccsc23)CC1 (relative stereo),66.5
6,O=C(NCCCN1CCOCC1)NC[C@@H]1C[C@H]1CN1CCN(c2csc3cc(C(F)(F)F)ccc23)CC1,8.12
7,CN(C)CCCNC(=O)NC[C@@H]1C[C@H]1CN1CCN(c2csc3cc(C(F)(F)F)ccc23)CC1,0.88
8,O=C(NCCOc1ccccc1)NC[C@@H]1C[C@H]1CN1CCN(c2csc3cc(C(F)(F)F)ccc23)CC1,34.4
9,O=C(NCCN1CCOCC1)NC[C@@H]1C[C@H]1CN1CCC(c2noc3ccsc23)CC1 (relative stereo),172
10,O=C(NCCCCN1CCCN(c2csc3cc(F)ccc23)CC1)Nc1cc(C(F)(F)F)ccc1Cl,6.51

# Same assay, conditions: read-out: d3Ki; Table III
row,Compound,Ki [nM]
1,O=C(NCCCCN1CCN(c2c(Cl)sc3cc(F)ccc23)CC1)NC12CC3CC(CC(C3)C1)C2,17.1
2,CCc1ccc(NC(=O)NCCCCN2CCC(c3noc4ccsc34)CC2)cc1 [816561],24.2
